The source of these data is PubChem BioAssay AID588436 (Broad Institute, 2011).

This is a selection; strong and weak results do not stand in their true shares. The source made the active and inactive calls. No stated cut-off is given here; in the data, active means activation mostly above about 9.7% (no sharp cut-off); inconclusive means no clear call, values can overlap the other calls; inactive means mostly below about 3.7%.

A short description of this assay: induces V. cholerae light production without autoinducers, primary screen, BH1578 luxS cqsA deficient, single point (AID 588436). The conditions noted are these: V. cholerae BH1578 lux reporter, luminescence, 6 h; at 18.7 µM; stronger effect = higher value.
Turning to `CC(C)c1ccc(OP(=O)(Nc2ccccn2)Oc2ccccc2F)cc1` (stereo unspecified), the activation is inactive: 0%.
For `ClCCSc1nnc(-c2cccnc2)o1`, the activation is inactive: -0.449%.
`CC(C)NC(=O)NP(=O)(Oc1ccccc1)Oc1ccccc1`: the activation is inactive: 0.345%.
On to `CCN(CC)C(=S)SC(NC=O)C(Cl)(Cl)Cl` (stereo unspecified), for which the activation was inactive: 0%.
With `O=C(OC1CN2CCC1CC2)c1cccc2[nH]cnc12` (stereo unspecified), the activation was inactive: -0.103%.
To `O=[N+]([O-])c1cc([N+](=O)[O-])c(-c2ccn[nH]2)s1` belongs inactive: -0.098%; to `O=[As](O)(c1ccc(O)cc1)c1ccccc1O`, inactive: -0.39%.
`C[As](=O)(O)c1cccc(C(=O)O)c1`: the activation is inactive: 0.0115%.
On to `O=[N+]([O-])c1ccc(-c2cc([N+](=O)[O-])c(O)c([N+](=O)[O-])c2)cc1`, for which the activation was inactive: -3.33%.
Take `COc1cc(C(=O)NCC2(N3CCOCC3)CCCCC2)ccc1OCC(C)C`: the activation was inactive: -5.2%.
With `Cc1ccc2nc3c(c(C)c2c1)CC(C(Cl)Cl)S3` (stereo unspecified), the activation is inactive: 0%.
To `Cc1ccc(OP(=O)(Nc2ccc([N+](=O)[O-])cn2)Oc2ccc(C)cc2)cc1` belongs inactive: -1.25%.
With `COc1ccc(N/C(=N/P(=O)(N2CCOCC2)N2CCOCC2)N2CCOCC2)cc1`, the activation is inactive: 2.08%.
As to `O=C(OC1CN2CCC1CC2)C12CC3CC(CC(C3)C1)C2` (stereo unspecified), the activation was inactive: 0.465%.
For the compound `Cc1cc(=O)[nH]c(N[N+](=O)[O-])n1`, the activation is inactive: -0.482%.
For `COc1ccc2nc(NP(=O)(c3ccccc3)c3ccccc3)sc2c1`, the activation is inactive: -0.488%.
As for `COc1cc(I)ccc1[As](=O)(O)O`, the activation was inactive: 0.724%.
On to `O=P1(N(CCCl)CCCl)Nc2ccccc2N1`, for which the activation is inactive: -0.834%.
To `O=P1(N(CCCl)CCCl)OCCCN1CCCl` (stereo unspecified) belongs inactive: 1.58%; to `Nc1cc(N)c2nonc2c1[N+](=O)[O-]`, inactive: 0%.
For the compound `CC(C)CC(=O)NC(Sc1ccc(Cl)cc1)C(Cl)(Cl)Cl` (stereo unspecified), the activation is inactive: -0.414%.
The result for `Oc1ccccc1CNc1ccccn1` reads inactive: 0%.
As for `O=C(NC(Sc1ccncn1)C(Cl)(Cl)Cl)c1ccccc1` (stereo unspecified), the activation was inactive: -0.104%.
The result for `NC(=O)c1cc([N+](=O)[O-])cc([N+](=O)[O-])c1N` reads inactive: -0.267%; that for `CN(C(=O)Cc1ccc(Cl)c(Cl)c1)[C@H]1CCCC[C@H]1N1CCCC1`, inactive: 0%; that for `Cc1ccc(N/C(=N/P(=O)(N2CCOCC2)N2CCOCC2)N2CCOCC2)cc1`, inactive: -0.451%.
As to `COc1ccccc1OP(=O)(Nc1ccc(C)cn1)Oc1ccccc1OC`, the activation was inactive: -0.828%.
With `Cc1ccc(OP(=O)(Nc2nccs2)Oc2ccc(C)cc2)cc1`, the activation was inactive: 0%.
Regarding `CN1CCCC(OC(=O)C(c2ccccc2)c2ccccc2)C1` (stereo unspecified), the activation is inactive: -4.76%.
With `Clc1ccc(Cl)c(NC2=NCC(CBr)S2)c1` (stereo unspecified), the activation was inactive: 0.818%.
On to `CCN(N=Nc1nonc1N)c1nonc1N`, for which the activation was inactive: 0%.
To `Nc1cccc2ccc([As](=O)(O)O)cc12` belongs inactive: 0.585%; to `CC(=O)Nc1ccc([As](=O)(O)O)cc1`, inactive: 1.02%.
With `O=C(O)c1ccccc1[As](=O)(O)O`, the activation was inactive: -0.593%.
`CCCC1OP(N)(=O)OCC1CC` (stereo unspecified): the activation was inactive: 2.7%.
`O=P(Nc1nc2ccc(Cl)cc2s1)(c1ccccc1)c1ccccc1`: the activation is inactive: -0.907%.
Take `CN(C)P(=O)(N(C)C)n1c(Nc2ccccc2)nnc1-c1ccccc1`: the activation is inactive: -5%.
Consider `Cc1cc(SC(NC(=O)c2ccc(F)cc2)C(Cl)(Cl)Cl)ncn1` (stereo unspecified), for which the activation was inactive: -0.282%.
As to `CCOP(=O)(Nc1ccccc1)OCC`, the activation was inactive: -2.08%.
As to `Cc1ccc(NP(=O)(Oc2ccccc2F)Oc2ccccc2F)nc1`, the activation is inactive: -0.53%.
In the case of `CN(C(=O)Cc1ccc(Cl)c(Cl)c1)[C@H]1CCCC[C@@H]1N1CCCC1`, the activation was inactive: 0%.
For the compound `CC(C)(C)C(=O)NC(Sc1ccncn1)C(Cl)(Cl)Cl` (stereo unspecified), the activation was inactive: -0.506%.
To `O=[N+]([O-])c1ncn(CCn2ncnc2[N+](=O)[O-])n1` belongs inactive: 0.758%; to `COC(=O)C1(C)COP(=O)(Nc2ccccc2)OC1` (stereo unspecified), inactive: -1.09%; to `O=[N+]([O-])c1cccc(NC2=NCC(CBr)S2)c1` (stereo unspecified), inactive: -0.2%.
For the compound `O=C(O)CNc1ccc([As](=O)(O)O)cc1`, the activation is inactive: -0.612%.
For `O=P1(N(CCCl)CCCl)OCCCS1` (stereo unspecified), the activation is inactive: -0.834%.
Regarding `O=C(Nc1cc([As](=O)(O)O)ccc1O)c1ccccc1`, the activation was inactive: 0%.
With `Nc1ccc([As](=O)(O)c2ccc(N)cc2)cc1`, the activation is inactive: -0.787%.
Consider `C[N+]1=C2C=CC=CC=C2SC12C([N+](=O)[O-])=CC([N+](=O)[O-])=C[C-]2[N+](=O)[O-]` (stereo unspecified), for which the activation was inactive: 0%.
For `CCN(/C(=N/P(=O)(N1CCOCC1)N1CCOCC1)N1CCOCC1)c1ccc(OC)cc1`, the activation is inactive: -0.396%.
Consider `CC(C)c1nc(Nc2ccccc2)n(P(=O)(N(C)C)N(C)C)n1`, for which the activation was inactive: -5%.
To `CC(C)=N/N=C(\N)N[N+](=O)[O-]` belongs inactive: -0.828%.
`CN(C)C(=O)OCCc1n(C)cc[n+]1C`: the activation is inactive: 0.338%.
Turning to `CC1CCN(C(=O)Oc2c(Cl)cc(Cl)c3cccnc23)CC1`, the activation is inactive: -16.7%.
Consider `c1cc(-c2nn[nH]n2)ccc1-c1nn[nH]n1`, for which the activation was inactive: 0%.
Regarding `COc1ccc(C2=NCC(CBr)S2)cc1` (stereo unspecified), the activation was inactive: 0%.
Consider `O=[N+]([O-])c1cccc2n[nH]nc12`, for which the activation is inactive: 8.33%.
`CC(=O)N1C2C3N(C(C)=O)C1C1N(C(C)=O)C(C(N1C(C)=O)N3C(C)=O)N2C(C)=O`: the activation is inactive: 0%.
Regarding `Cc1ccc(NP(=O)(Oc2ccccc2)Oc2ccccc2)nc1`, the activation was inactive: 0%.
As for `CCc1nc2c(n1)c1c(non1O)c1c2no[n+]1[O-]`, the activation was inactive: 0%.
Regarding `O=[N+]([O-])c1cc([N+](=O)[O-])c(CCNc2ccccc2)c([N+](=O)[O-])c1`, the activation is inactive: -0.133%.
The result for `CC(C)C(=O)NC(Sc1ccccc1)C(Cl)(Cl)Cl` (stereo unspecified) reads inactive: 0%; that for `O=P(Nc1nccs1)(c1ccccc1)c1ccccc1`, inactive: -0.187%.
With `c1nnnn1CCn1cnnn1`, the activation was inactive: -0.274%.
For the compound `O=[N+]([O-])c1ccc(O)c(/C=N/Nc2ccc([N+](=O)[O-])cc2[N+](=O)[O-])c1`, the activation is inactive: 0.238%.
